For two compounds, Ki results are on record in patent US20070105759A1 (priority 2003, published 2007).

By UniProt entry, the sequences of proteins in these tests, tags left out.
UniProt P32245, whole entry: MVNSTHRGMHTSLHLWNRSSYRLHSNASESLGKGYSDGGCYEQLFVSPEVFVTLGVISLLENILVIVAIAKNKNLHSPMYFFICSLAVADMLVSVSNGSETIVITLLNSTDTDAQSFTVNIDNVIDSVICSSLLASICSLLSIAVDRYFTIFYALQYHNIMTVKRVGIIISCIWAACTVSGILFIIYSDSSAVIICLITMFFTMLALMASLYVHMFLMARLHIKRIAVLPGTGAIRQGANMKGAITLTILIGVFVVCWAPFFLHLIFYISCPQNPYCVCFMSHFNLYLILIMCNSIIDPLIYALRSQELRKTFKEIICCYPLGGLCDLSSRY

The assay deals with MC4 (Homo sapiens, UniProt P32245). Conditions: read-out: MC4 Ki.

For the compound `CC(=O)N[C@@H](CCCNC(=N)N)C(=O)N[C@H]1CCSSCC[C@@H](C(N)=O)NC(=O)[C@H](Cc2c[nH]c3ccccc23)NC(=O)[C@H](CCCNC(=N)N)NC(=O)[C@@H](Cc2ccccc2)NC(=O)[C@H](Cc2c[nH]cn2)NC1=O` [Compound No. 195, Ac-Arg-cyclo[hCys-His-D-Phe-Arg-Trp-hCys]-NH2], the Ki was 0.87 nM.
`CC(=O)N[C@H]1CSSCC[C@@H](C(N)=O)NC(=O)[C@H](Cc2c[nH]c3ccccc23)NC(=O)[C@H](CCCNC(=N)N)NC(=O)[C@@H](Cc2ccc(F)cc2)NC(=O)[C@H](Cc2c[nH]cn2)NC1=O` [Compound No. 184, Ac-cyclo[Cys-His-(4-F-D-Phe)-Arg-Trp-hCys]-NH2]: the Ki amounted to 2.51 nM.
